Values quoted from earlier work, collected in US20250325518A1, “USE OF A COMBINATION OF SACUBITRIL AND VALSARTAN” (Novartis AG, priority 2016, published 2025).

Test system: adult patients with HF with reduced ejection fraction (HFrEF)

Q: With “trisodium [3-((1S,3R)-1-biphenyl-4-ylmethyl-3-ethoxycarbonyl-1-butylcarbamoyl)propionate-(S)-3′-methyl-2′-(pentanoyl{2″-(tetrazol-5-ylate)biphenyl-4′-ylmethyl}amino)butyrate] hemipentahydrate [LCZ696]” as the substance, how does the safety and tolerability read?
A: generally safe and well tolerated
